What was measured:
[1] = In Vitro Assay: In general, Trex HEK293 cells were stably transfected with an inducible expression vector containing the full-length cDNA coding for the desired human sodium channel α-subunit and with an expression vector containing full length cDNA coding for the β1-subunit. Sodium channel expressing cell lines were induced with tetracycline (1 μg/mL) and plated on 384-well PDL-coated plates at …
cells = conditions: HEK293

| SMILES | IC50 [1] [µM] | IC50 (cells) [µM] |
| --- | --- | --- |
| CNc1c(F)c(S(=O)(=O)Nc2cscn2)cc(C)c1[C@@H]1CCN(Cc2ccccc2O)C1 | 13 | – |
| Cc1cccc(CN2CC[C@H](Oc3ccc(S(=O)(=O)Nc4nccs4)cc3Cl)[C@H](C)C2)c1 (relative stereo) | – | 6.24 |

From ChEMBL document CHEMBL5728069, “Benzenesulfonamide compounds and their use as therapeutic agents” (2020)
